A549 viability: counter-screen for Nrf2 inhibitors: cytotoxicity in A549 cells; A549 ARE-Fluc cells, CellTiter-Fluor viability, 18-24 h; Potency, µM (series often up to 46 µM), inactives show at the top dose activity change, negative = cytotoxicity, usual class: inhibitors; actives 0.16% (n = 390,000); AID 504648; also: potency is read from the fitted curve at half-maximal effect; % is scaled to controls: 0 for no effect and ±100 for the full control effect
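A549 ARE_Fluc cells in 5% FBS OPTI-MEM were exposed to compounds in concentration-response for 18-24 h at 37 deg C. Viability was read by CellTiter-Fluor fluorescence (Ex 405/Em 525) after 30 min, before the luciferase read.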
miR-21 reporter: miR-21 reporter, rising signal; HeLa miR-21 FLuc reporter, luciferase, 48 h; Potency, µM (doses to about 38.3 µM), for inactives: at the highest dose reporter change, positive = more light; 340,000 tested, under 10 active; AID 2288; active = well fitted rising curve with a large enough effect; inconclusive = small, poorly fitted or top-dose-only effect; inactive = no such curve, though single readings can be large or run the other way;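 further: % of control where 0% means no effect; miR-21 action dims this reporter so a rising signal means less miR-21 action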
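Compounds were titrated across several concentrations (up to approximately 40 uM) and incubated 48 hours with HeLa miR-21-FLuc reporter cells (miR-21 target sequence downstream of FLuc, endogenous miR-21). Readout was firefly luciferase luminescence after lytic detection reagent.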
Glioma ERSR ind: ER stress response induction in glioma | AID 602332 | U87-MG GRP78 promoter luciferase reporter, 16 h | actives 0.02% (n = 420,000) | Potency, µM, for the others: at the highest dose activation, usual class: activators; also: potency is read from the fitted curve at half-maximal effect; series mostly up to about 76 µM; % of control where 0% means no effect; nearly all actives have a fitted effect of over 35% in size
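Stably transfected U87-MG human glioma cells carrying a GRP78-based luminescent sensor were seeded at 1000 cells/well, pin-dosed with compounds and incubated 16 h. Luciferase reagent was then added, and end-point luminescence was read after 10 min at room temperature.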
TSG101-PTAP inh: blocks PTAP/TSG101 interaction to inhibit HIV-1 budding | Fluorescence polarization, FITC-PTAP peptide / Tsg101 binding | Potency, µM (doses to about 115 µM), for inactives: top-dose activity change, negative = inhibition, most hits filed as inhibitors | 340,000 tested, under 10 active; active = well fitted inhibition curve with a large enough effect in the main read-out, with a control signal flat, not every such curve was filed as active; inconclusive = small, poorly fitted or top-dose-only effect, or effect the other way, or a change in a side signal; inactive = no such curve, though single readings can be large or run the other way; also: potency is read from the fitted curve at half-maximal effect; % of control where 0% means no effect
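Compounds were pin-transferred onto Tsg101 binding domain (10 uM final) in HEPES pH 7.5 buffer, then FITC-PTAP peptide was added at 50 nM final. After 20 min at RT, polarization reported peptide displacement across a qHTS concentration series.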
Nrf2 activator: activates Nrf2 signaling | AREc32 ARE-luciferase reporter (MCF7-derived line), luminescence, 24 h | Potency, µM (top dose mostly 46.1 µM), for inactives: top-dose activation, usual class: activators | AID 624171 | actives 0.31% (n = 410,000); also: potency is read from the fitted curve at half-maximal effect; % of control where 0% means no effect; nearly all actives have a fitted effect of over 65% in size
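Cells of the AREc32 ARE-luciferase line are plated in OPTI-MEM containing 5% FBS and left overnight at 37 deg C. Compounds are pinned in, incubation continues 24 hr, and firefly luciferase signal is then measured.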
Nrf2 inh: inhibitors of Nrf2 signaling; A549 ARE-Fluc reporter, luciferase luminescence, 18-24 h; Potency, µM (highest dose often 46 µM), without a hit: at the highest dose activity change, negative = inhibition, actives largely listed as inhibitors; actives 2.1% (n = 360,000); also: potency is read from the fitted curve at half-maximal effect; % is scaled to controls: 0 for no effect and ±100 for the full control effect; nearly all actives have a fitted effect of over 60% in size
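Reporter: ARE-Fluc in A549. Exposure: 18-24 h, 37 °C, 5% CO2, 5% FBS OPTI-MEM. Readouts: fluorescent cytotoxicity (CellTiter-Fluor), then luminescent Nrf2 signal after BugLite.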
Starred values were filed as active, the others as inactive; ? = inconclusive; nt = not tested or not shown. Compounds with a hit are over-represented: about 2.1% of the library has one in this group of screens. Unless noted, calls follow the shape of the dose curve; as a rule, active = well fitted curve in the direction sought with a large enough effect; inconclusive = small, poorly fitted or top-dose-only effect, or another doubt; inactive = no such curve, though single readings can be large; an effect the other way counts as inactive or inconclusive.

1. CCn1nc(-c2ccccc2C)nc2c(=O)n(C)c(=O)nc1-2
2. Cn1nc(-c2ccc(Cl)cc2)nc2c(=O)n(C)c(=O)nc1-2
3. Cn1nc(-c2ccc(F)cc2)nc2c(=O)n(C)c(=O)nc1-2
4. COc1ccc(C2Nc3ccccc3C(=O)N2Cc2ccccc2C(F)(F)F)cc1COc1ccc(NC(C)=O)cc1 (configuration not stated)
5. Cc1ccc(NS(=O)(=O)c2cc3c(cc2N(C)C)CCC(=O)N3)cc1C
6. COc1ccc(-c2nc3c(=O)n(C)c(=O)nc-3n(C)n2)cc1
7. COc1cc(/C=C/c2ccnc3ccccc23)ccc1N(C)C
8. O=C(O)/C=C/C(=O)c1c(-c2ccccc2)[nH]c2ccccc12
9. C[C@@H]1C[C@H]2[C@@H]3C[C@H](F)C4=CC(=O)C=C[C@]4(C)[C@@]3(F)[C@@H](O)C[C@]2(C)[C@@]1(O)C(=O)COC(=O)C(C)(C)C
10. CC1=C(c2ccc(Cl)cc2)S(=O)(=O)N=C1N1CCN(c2cccc(C)c2)C(C)C1 (configuration not stated)
assay / entry	1	2	3	4	5	6	7	8	9	10
A549 viability	23µM*	8.2µM*	2.9µM*	0%	2%	1.6µM*	nt	2%	1%	-4%
miR-21 reporter	nt	?	nt	nt	nt	nt	nt	9%	-36%	1%
TSG101-PTAP inh	nt	nt	nt	nt	nt	nt	nt	-6%	1%	nt
Glioma ERSR ind	-9%	-9%	-11%	nt	nt	-10%	2%	-6%	-4%	0%
Nrf2 activator	nt	nt	nt	nt	nt	nt	nt	10µM*	-1%	0%
Nrf2 inh	2%	-124%	2.3µM*	-4%	13%	1.5µM*	nt	1%	0.052µM*	23µM*

One compound at a time, from the list above.
COc1ccc(C2Nc3ccccc3C(=O)N2Cc2ccccc2C(F)(F)F)cc1COc1ccc(NC(C)=O)cc1 (configuration not stated) in the list: A549 viability = 0%; miR-21 reporter = nt; TSG101-PTAP inh = nt; Glioma ERSR ind = nt; Nrf2 activator = nt; Nrf2 inh = -4%
COc1ccc(-c2nc3c(=O)n(C)c(=O)nc-3n(C)n2)cc1 in the list: A549 viability = 1.6µM*; miR-21 reporter = nt; TSG101-PTAP inh = nt; Glioma ERSR ind = -10%; Nrf2 activator = nt; Nrf2 inh = 1.5µM*

Values by screen from the entries so far.
Entries 1 to 9 in Nrf2 inh, in turn: 2%, -124%, 2.3µM*, -4%, 13%, 1.5µM*, nt, 1%, 0.052µM*
Entries 1 to 9 in Glioma ERSR ind, in turn: -9%, -9%, -11%, nt, nt, -10%, 2%, -6%, -4%

Looked up above:
Entry of compound 2 in A549 viability: 8.2µM*
Entry of compound 10 in A549 viability: -4%

The results go on:
11. Cc1ccc(-c2nc3nc(C)cc(N4CCN(c5cccc(C)c5)C(C)C4)n3n2)cc1 (configuration not stated)
12. COc1ccc(OC)c(NC(=O)Cc2c(C)n(C(=O)c3ccc(Cl)cc3)c3ccc(OC)cc23)c1
13. COc1ccc2c(c1)c(CC(=O)Nc1ccc(C(C)=O)cc1)c(C)n2C(=O)c1ccc(Cl)cc1
14. Cc1cc(C(=O)NCc2nnc3n2CCN(Cc2ccc(F)cc2F)CC3)c(C)o1
15. COCC(=O)Nc1cc(C(=O)NC2CCc3ccccc32)c2c(c1)nc(-c1ccncc1)n2C (configuration not stated)
16. COc1ccc(CNC(=O)C2CCCN(S(=O)(=O)c3ccc4c(c3)CCCN4C(C)=O)C2)cc1 (configuration not stated)
17. COc1ccc(C)cc1S(=O)(=O)N1CCCC(C(=O)N2CCN(c3ccccc3)CC2)C1 (configuration not stated)
18. CC(=O)N1CCCc2cc(S(=O)(=O)N3CCCC(C(=O)N4CCN(c5cc(C)ccc5C)CC4)C3)ccc21 (configuration not stated)
19. CC(=O)N1CCCc2cc(S(=O)(=O)N3CCCC(C(=O)N4CCN(c5ccccc5)CC4)C3)ccc21 (configuration not stated)
20. CCC(O)CNC(=O)c1cnn(-c2ncc3c(n2)-c2ccccc2CCC3)c1C1CC1 (configuration not stated)
21. COc1cccc2cc(C(=O)Nc3ccc(CC(=O)O)cc3)c(=O)oc12
22. COc1cccc2cc(C(=O)OCC(=O)N3CC(C)OC(C)C3)c(=O)oc12 (configuration not stated)
assay / entry	11	12	13	14	15	16	17	18	19	20	21	22
A549 viability	0%	-12%	?	nt	nt	0%	1%	-10%	-6%	nt	-12%	-3%
miR-21 reporter	2%	-1%	0%	nt	nt	21%	24%	?	?	nt	?	nt
TSG101-PTAP inh	nt	nt	6%	nt	nt	-3%	-5%	0%	0%	nt	nt	-3%
Glioma ERSR ind	-1%	nt	5%	-4%	-2%	-4%	-3%	-8%	-3%	0%	-11%	3%
Nrf2 activator	0%	-1%	6%	nt	nt	0%	-1%	-1%	0%	nt	-4%	16µM*
Nrf2 inh	4%	23µM*	23µM*	nt	nt	21µM*	26µM*	7.3µM*	13µM*	nt	1.5µM*	-6%
